# AlphaSeq binding of Ab-14 heavy chain variants to a spike HR2 peptide

The measurements come from Li et al. 2023 (doi:10.1038/s41467-023-39022-2) through the FLAb antibody collection.

Target peptide (SARS-CoV-2 spike, HR2 region): PDVDLGDISGINAS

The variants keep the light chain, the linker and the frameworks of Ab-14 (scFv order VH, the linker GGGGSGGGGSGGGGS, VL).
VH: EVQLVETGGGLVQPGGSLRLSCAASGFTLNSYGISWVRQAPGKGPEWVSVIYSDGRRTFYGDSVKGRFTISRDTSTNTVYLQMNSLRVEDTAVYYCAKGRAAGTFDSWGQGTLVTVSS
VL: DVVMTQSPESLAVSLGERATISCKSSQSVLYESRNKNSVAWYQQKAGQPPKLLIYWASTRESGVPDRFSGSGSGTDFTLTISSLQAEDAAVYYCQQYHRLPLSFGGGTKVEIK

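This is the validation round: designs drawn from the data on random variants, tested in the same kind of assay. Group labels follow the data file (Ctrl: baseline library sampled from a position-specific scoring matrix, with some repeated check sequences; Rand: our label for a block that the file lists under HC and that is probably the random mutants of the ten best first-round binders; En: ensemble of fine-tuned language models; GP: Gaussian process model; GPLM: also part of the Gaussian process libraries; HC: hill climbing; Gen: genetic algorithm; Gibbs: Gibbs sampling; a sequence that several methods proposed may carry one label only). Affinity was read by AlphaSeq, a pooled yeast mating assay with surface-displayed partners. After mating in shaken culture at 30 °C for 16 h, diploids were selected and their barcode pairs sequenced. A regression on co-assayed BCL2-family reference pairs converts the normalised counts of each replicate to an apparent Kd. Each pool was mated in six replicate cultures.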

Positions count from residue 1 of the parent VH; A101E puts E in place of A. Variants here have at most six changes. Affinities are written as log10 Kd with Kd in nM; a lower number is a better binder. Averages over replicates are reported, and they cover detected replicates only. "nd" means that the variant was in the library but no mating with the target was seen in any replicate; the authors take this as a sign of poor binding, and no number exists. Three control strains display no target. For all heavy chain designs, 1% of the pairings with them gave a signal, with a median of 2.08 and one signal in twenty below 0.84, so weak values seen in few replicates may be background. For each scFv, signals with the empty controls are counted beside the result. The parent sequence was in this pool as ten entries: three were never detected, three once, and four in most replicates, with averages from 0.34 to 2.37. The authors' rule: three or more of the six replicates give a measured affinity, fewer mean a poor binder. The range of this assay differs from that of the first round, and the authors advise against merging the two.

Variant A101E G103D [Ctrl] showed 1.75 (4 of 6 replicates; controls 1 of 18). With S31D A101I D106W [GPLM_HC] the result was nd (0 of 6 replicates; controls 0 of 18). With T28F R100K A101E S107T [GP_Gibbs] the result was 1.51 (6 of 6 replicates; controls 1 of 18). With S31D G61D A101T D106I [GP_HC] the result was nd (0 of 6 replicates; controls 0 of 18). Variant T28S S31E G61A G103V S107Q [GPLM_HC] gave nd (0 of 6 replicates; controls 0 of 18). With T28E R56I A101T [GP_Gen] the result was -0.17 (6 of 6 replicates; controls 0 of 18). Variant T28N G61L R100W A101T [GP_Gibbs] showed 1.13 (6 of 6 replicates; controls 0 of 18).

Variant T28D S31E S53A G61A R100N S107M [En_HC] showed 0.20 (6 of 6 replicates; controls 0 of 18). Variant N30E S31Q G61A [GPLM_HC] gave 0.95 (5 of 6 replicates; controls 0 of 18). Variant T28D S63Q R100K A101E [GP_Gen] showed 1.56 (6 of 6 replicates; controls 0 of 18). For T28S S53A S63N [GP_Gen], the assay gave 0.22 (6 of 6 replicates; controls 1 of 18). For T28M N30D S31D A101M S107L [Ctrl], the assay gave 0.58 (6 of 6 replicates; controls 0 of 18). For T28N S53A R100Q S107T [GP_Gibbs], the assay gave 0.00 (6 of 6 replicates; controls 0 of 18). For T28H S31E I34R R100K A102K T104C [Ctrl], the assay gave nd (0 of 6 replicates; controls 0 of 18).

For N30D G61A R100Q [GPLM_Gen], the assay gave 0.25 (6 of 6 replicates; controls 0 of 18). With N30Q S53A A101K G103T [Ctrl] the result was -0.02 (6 of 6 replicates; controls 0 of 18). Variant T28N S63D A101Q [GPLM_Gibbs] showed 0.59 (6 of 6 replicates; controls 2 of 18). Variant S31D D106S S107D [GPLM_HC] showed 1.16 (6 of 6 replicates; controls 0 of 18). Variant R56Y D106S [Ctrl] gave nd (0 of 6 replicates; controls 0 of 18). For N30D R57K [Ctrl], the assay gave nd (0 of 6 replicates; controls 0 of 18). With S31Q A102Q [Ctrl] the result was nd (0 of 6 replicates; controls 0 of 18).

For S35Q T58V F59A G61S R100K [Ctrl], the assay gave 0.86 (1 of 6 replicates; controls 0 of 18). For S31Y G61D R100Q A101L [Rand], the assay gave 0.40 (6 of 6 replicates; controls 0 of 18). Variant G26P T28D G61Q R100Q [GP_Gibbs] gave 2.27 (2 of 6 replicates; controls 0 of 18). Variant G26H T28N G61A R100N [GPLM_Gibbs] showed 2.19 (4 of 6 replicates; controls 0 of 18). With T28W S31E G61A A101T [GPLM_Gen] the result was 0.12 (6 of 6 replicates; controls 1 of 18). Variant R56L G61I A101I [GP_HC] showed 2.83 (1 of 6 replicates; controls 0 of 18). Variant L29P G61Q R100T F105Y [Ctrl] gave 2.45 (1 of 6 replicates; controls 0 of 18).

For D54I T104F [Ctrl], the assay gave nd (0 of 6 replicates; controls 0 of 18). Variant T28D G61A S63M R100Q A101T [GP_Gen] gave 0.95 (6 of 6 replicates; controls 0 of 18). For N30K A101K [Ctrl], the assay gave nd (0 of 6 replicates; controls 0 of 18). For T28N G61S S63R R100Q [GP_Gibbs], the assay gave 1.08 (1 of 6 replicates; controls 0 of 18). With T28A G33P [Ctrl] the result was nd (0 of 6 replicates; controls 0 of 18). For T28S G61D A101T [GPLM_Gen], the assay gave 0.89 (6 of 6 replicates; controls 0 of 18). Variant T28H L29V Y32F T104D [Ctrl] showed nd (0 of 6 replicates; controls 0 of 18).

Variant T28S S31E G61A S107K [GPLM_Gen] gave -0.50 (6 of 6 replicates; controls 0 of 18). For R56K A101E [Ctrl], the assay gave 0.45 (6 of 6 replicates; controls 0 of 18). Variant N30P R56K G61E S63D K65V [Ctrl] showed nd (0 of 6 replicates; controls 0 of 18). Variant T28D R100T A101T [GPLM_Gen] gave -0.33 (6 of 6 replicates; controls 0 of 18). With T28K N30Q [Ctrl] the result was 1.82 (3 of 6 replicates; controls 0 of 18). Variant S31E G61S T104I [GPLM_HC] showed nd (0 of 6 replicates; controls 0 of 18). Variant F59M A101L T104N [Ctrl] showed 2.34 (1 of 6 replicates; controls 1 of 18).

Variant G26Q S31E G61S [Ctrl] gave 0.70 (2 of 6 replicates; controls 1 of 18). For T28N S63K R100K A101T [GP_Gibbs], the assay gave 0.38 (6 of 6 replicates; controls 0 of 18). Variant G26K S31D G61I A101C [GP_HC] showed nd (0 of 6 replicates; controls 0 of 18). Variant S53A G61A F105S [Ctrl] showed 1.88 (1 of 6 replicates; controls 1 of 18). With N30E S53A R56K [GPLM_Gen] the result was 0.12 (6 of 6 replicates; controls 0 of 18). Variant S31D R56K G61I [GPLM_HC] gave 1.17 (6 of 6 replicates; controls 0 of 18). With T28S S31E S53A R100M [GP_HC] the result was -0.69 (6 of 6 replicates; controls 0 of 18).

A selection of 6 entries from above:

With G26K S31D G61I A101C [GP_HC] the result was nd (0 of 6 replicates; controls 0 of 18).
With S31D D106S S107D [GPLM_HC] the result was 1.16 (6 of 6 replicates; controls 0 of 18).
With N30Q S53A A101K G103T [Ctrl] the result was -0.02 (6 of 6 replicates; controls 0 of 18).
With T28H S31E I34R R100K A102K T104C [Ctrl] the result was nd (0 of 6 replicates; controls 0 of 18).
With F59M A101L T104N [Ctrl] the result was 2.34 (1 of 6 replicates; controls 1 of 18).
With T28S G61D A101T [GPLM_Gen] the result was 0.89 (6 of 6 replicates; controls 0 of 18).